Data published in patent US20260382613A1, “METHODS OF TREATING ACUTE LEUKEMIA” (published 2026).

Experiment: clinical safety and tolerability (TEAEs, SAEs, DLTs, QTc), Phase 1 study
Conditions: for most common TEAEs ≥Grade 3: 200 or 600 mg
[1] = NPM1-m 600 mg N=20, cutoff 12 Apr 2023
[2] = NPM1-m 600 mg n=20, cutoff 31 Jan 2023

CNc1nc(NC2CCN(Cc3ccc4c(cc(C#N)n4C[C@H](C)N4CCN(S(C)(=O)=O)CC4)c3C)CC2)c2cc(CC(F)(F)F)sc2n1
Alanine aminotransferase increased, Grade 3 or above TEAE (200 mg N=23): 2 (8.7) % | Anemia, Grade 3 or above TEAE (200 mg N=23): 7 (30.4) % | Diarrhea, Grade 3 or above TEAE (200 mg N=23): 0% | Febrile neutropenia, Grade 3 or above TEAE (200 mg N=23): 7 (30.4) % | Hyperglycemia, Grade 3 or above TEAE (200 mg N=23): 0% | Hypoxia, Grade 3 or above TEAE (200 mg N=23): 3 (13.0) % | Leukocytosis, Grade 3 or above TEAE (200 mg N=23): 2 (8.7) % | Neutropenia, Grade 3 or above TEAE (200 mg N=23): 2 (8.7) % | Neutrophil count decreased, Grade 3 or above TEAE (200 mg N=23): 3 (13.0) % | Patients with Grade 3 or above TEAE (200 mg N=23): 20 (87.0) % | Platelet count decreased, Grade 3 or above TEAE (200 mg N=23): 3 (13.0) % | Pneumonia, Grade 3 or above TEAE (200 mg N=23): 5 (21.7) % | Sepsis, Grade 3 or above TEAE (200 mg N=23): 5 (21.7) % | Thrombocytopenia, Grade 3 or above TEAE (200 mg N=23): 3 (13.0) % | safety profile in NPM1-m AML vs non-NPM1-m AML (600 mg): more favorable safety profile | Alanine aminotransferase increased, Grade 3 or above TEAE (600 mg N=41): 3 (7.3) % | Anemia, Grade 3 or above TEAE (600 mg N=41): 11 (26.8) % | Diarrhea, Grade 3 or above TEAE (600 mg N=41): 4 (9.8) % | Febrile neutropenia, Grade 3 or above TEAE (600 mg N=41): 9 (22.0) % | Hyperglycemia, Grade 3 or above TEAE (600 mg N=41): 5 (12.2) % | Hypoxia, Grade 3 or above TEAE (600 mg N=41): 4 (9.8) % | Leukocytosis, Grade 3 or above TEAE (600 mg N=41): 3 (7.3) % | Neutropenia, Grade 3 or above TEAE (600 mg N=41): 3 (7.3) % | Neutrophil count decreased, Grade 3 or above TEAE (600 mg N=41): 2 (4.9) % | Patients with Grade 3 or above TEAE (600 mg N=41): 39 (95.1) % | Platelet count decreased, Grade 3 or above TEAE (600 mg N=41): 3 (7.3) % | Pneumonia, Grade 3 or above TEAE (600 mg N=41): 6 (14.6) % | Sepsis, Grade 3 or above TEAE (600 mg N=41): 4 (9.8) % | Thrombocytopenia, Grade 3 or above TEAE (600 mg N=41): 6 (14.6) % | Dose-limiting toxicities (KMT2A-r): 30.0% | Alanine aminotransferase increased, Grade 3 or above TEAE (KMT2A-r 200+600 mg N=32): 5 (15.6) % | Anemia, Grade 3 or above TEAE (KMT2A-r 200+600 mg N=32): 9 (28.1) % | Diarrhea, Grade 3 or above TEAE (KMT2A-r 200+600 mg N=32): 0% | Febrile neutropenia, Grade 3 or above TEAE (KMT2A-r 200+600 mg N=32): 9 (28.1) % | Hyperglycemia, Grade 3 or above TEAE (KMT2A-r 200+600 mg N=32): 2 (6.3) % | Hypoxia, Grade 3 or above TEAE (KMT2A-r 200+600 mg N=32): 4 (12.5) % | Leukocytosis, Grade 3 or above TEAE (KMT2A-r 200+600 mg N=32): 4 (12.5) % | Neutropenia, Grade 3 or above TEAE (KMT2A-r 200+600 mg N=32): 1 (3.1) % | Neutrophil count decreased, Grade 3 or above TEAE (KMT2A-r 200+600 mg N=32): 2 (6.3) % | Patients with Grade 3 or above TEAE (KMT2A-r 200+600 mg N=32): 31 (96.9) % | Platelet count decreased, Grade 3 or above TEAE (KMT2A-r 200+600 mg N=32): 4 (12.5) % | Pneumonia, Grade 3 or above TEAE (KMT2A-r 200+600 mg N=32): 5 (15.6) % | Sepsis, Grade 3 or above TEAE (KMT2A-r 200+600 mg N=32): 4 (12.5) % | Thrombocytopenia, Grade 3 or above TEAE (KMT2A-r 200+600 mg N=32): 3 (9.4) % | most common TEAEs ≥Grade 3 (KMT2A-r, Ph1a+1b): anemia, febrile neutropenia, pneumonia, sepsis, increased alanine aminotransferase, decreased platelet count, and differentiation syndrome | Pneumonia, SAE in ≥10% (KMT2A-r, Ph1a+1b): 12.5% | Sepsis, SAE in ≥10% (KMT2A-r, Ph1a+1b): 12.5% | Dose-limiting toxicities (NPM1-m): 14.3% | at least one ≥Grade 3 TEAE [1]: 85% | potentially treatment-related ≥Grade 3 TEAE [1]: 30% | Pneumonia, TEAE ≥Grade 3 [2]: 20% | TEAEs considered potentially treatment-related [2]: 30% | at least one ≥Grade 3 TEAE [2]: 85% | Alanine aminotransferase increased, Grade 3 or above TEAE (NPM1-m 200+600 mg N=26): 0% | Anemia, Grade 3 or above TEAE (NPM1-m 200+600 mg N=26): 7 (26.9) % | Diarrhea, Grade 3 or above TEAE (NPM1-m 200+600 mg N=26): 4 (15.4) % | Febrile neutropenia, Grade 3 or above TEAE (NPM1-m 200+600 mg N=26): 6 (23.1) % | Hyperglycemia, Grade 3 or above TEAE (NPM1-m 200+600 mg N=26): 3 (11.5) % | Hypoxia, Grade 3 or above TEAE (NPM1-m 200+600 mg N=26): 3 (11.5) % | Leukocytosis, Grade 3 or above TEAE (NPM1-m 200+600 mg N=26): 1 (3.8) % | Neutropenia, Grade 3 or above TEAE (NPM1-m 200+600 mg N=26): 4 (15.4) % | Neutrophil count decreased, Grade 3 or above TEAE (NPM1-m 200+600 mg N=26): 3 (11.5) % | Patients with Grade 3 or above TEAE (NPM1-m 200+600 mg N=26): 23 (88.5) % | Platelet count decreased, Grade 3 or above TEAE (NPM1-m 200+600 mg N=26): 1 (3.8) % | Pneumonia, Grade 3 or above TEAE (NPM1-m 200+600 mg N=26): 6 (23.1) % | Sepsis, Grade 3 or above TEAE (NPM1-m 200+600 mg N=26): 5 (19.2) % | Thrombocytopenia, Grade 3 or above TEAE (NPM1-m 200+600 mg N=26): 6 (23.1) % | most common TEAEs ≥Grade 3 (NPM1-m, Ph1a+1b): anemia, neutropenia, thrombocytopenia, diarrhea, pneumonia, sepsis, decreased neutrophil count, decreased white blood cell count, and hyperglycemia | Clostridium difficile infection, SAE in ≥10% (NPM1-m, Ph1a+1b): 11.8% | Pneumonia, SAE in ≥10% (NPM1-m, Ph1a+1b): 11.8% | Sepsis, SAE in ≥10% (NPM1-m, Ph1a+1b): 11.8% | ≥Grade 3 TEAEs in >10% of patients (NPM1-m, Ph1b 53 subjects): None were reported | drug-induced QT/QTc prolongation (Ph1a): No drug-induced QT/QTc prolongation was reported | number of dose-limiting toxicities (Ph1a): Two | Anemia, ≥Grade 3 TEAE (All Causality) (Ph1a 50 mg N=1): 0% | Decreased appetite, ≥Grade 3 TEAE (All Causality) (Ph1a 50 mg N=1): 0% | Febrile neutropenia, ≥Grade 3 TEAE (All Causality) (Ph1a 50 mg N=1): 0% | Neutropenia, ≥Grade 3 TEAE (All Causality) (Ph1a 50 mg N=1): 0% | Pneumonia, ≥Grade 3 TEAE (All Causality) (Ph1a 50 mg N=1): 1 (100) % | SAEs (All Causality) (Ph1a 50 mg N=1): 1 (100.0) % | SAEs (Ziftomenib-Related) (Ph1a 50 mg N=1): 0 (0.0) % | TEAEs (All Causality) (Ph1a 50 mg N=1): 1 (100.0) % | Thrombocytopenia, ≥Grade 3 TEAE (All Causality) (Ph1a 50 mg N=1): 0% | ≥Grade 3 TEAEs (All Causality) (Ph1a 50 mg N=1): 1 (100.0) % | ≥Grade 3 TEAEs (Ziftomenib-Related) (Ph1a 50 mg N=1): 1 (100.0) % | Anemia, ≥Grade 3 TEAE (All Causality) (Ph1a 100 mg N=1): 0% | Decreased appetite, ≥Grade 3 TEAE (All Causality) (Ph1a 100 mg N=1): 0% | Febrile neutropenia, ≥Grade 3 TEAE (All Causality) (Ph1a 100 mg N=1): 0% | Neutropenia, ≥Grade 3 TEAE (All Causality) (Ph1a 100 mg N=1): 1 (100) % | Pneumonia, ≥Grade 3 TEAE (All Causality) (Ph1a 100 mg N=1): 0% | SAEs (All Causality) (Ph1a 100 mg N=1): 1 (100.0) % | SAEs (Ziftomenib-Related) (Ph1a 100 mg N=1): 1 (100.0) % | TEAEs (All Causality) (Ph1a 100 mg N=1): 1 (100.0) % | Thrombocytopenia, ≥Grade 3 TEAE (All Causality) (Ph1a 100 mg N=1): 0% | ≥Grade 3 TEAEs (All Causality) (Ph1a 100 mg N=1): 1 (100.0) % | ≥Grade 3 TEAEs (Ziftomenib-Related) (Ph1a 100 mg N=1): 1 (100.0) % | Anemia, ≥Grade 3 TEAE (All Causality) (Ph1a 200 mg N=6): 2 (33.3) % | Decreased appetite, ≥Grade 3 TEAE (All Causality) (Ph1a 200 mg N=6): 2 (33.3) % | Febrile neutropenia, ≥Grade 3 TEAE (All Causality) (Ph1a 200 mg N=6): 0% | Neutropenia, ≥Grade 3 TEAE (All Causality) (Ph1a 200 mg N=6): 1 (16.7) % | Pneumonia, ≥Grade 3 TEAE (All Causality) (Ph1a 200 mg N=6): 2 (33.3) % | SAEs (All Causality) (Ph1a 200 mg N=6): 4 (66.7) % | SAEs (Ziftomenib-Related) (Ph1a 200 mg N=6): 1 (16.7) % | TEAEs (All Causality) (Ph1a 200 mg N=6): 6 (100.0) % | Thrombocytopenia, ≥Grade 3 TEAE (All Causality) (Ph1a 200 mg N=6): 1 (16.7) % | ≥Grade 3 TEAEs (All Causality) (Ph1a 200 mg N=6): 5 (83.3) % | ≥Grade 3 TEAEs (Ziftomenib-Related) (Ph1a 200 mg N=6): 1 (16.7) % | dose-limiting toxicity (Ph1a 400 mg): pneumonitis | Anemia, ≥Grade 3 TEAE (All Causality) (Ph1a 400 mg N=5): 1 (20.0) % | Decreased appetite, ≥Grade 3 TEAE (All Causality) (Ph1a 400 mg N=5): 0% | Febrile neutropenia, ≥Grade 3 TEAE (All Causality) (Ph1a 400 mg N=5): 1 (20.0) % | Neutropenia, ≥Grade 3 TEAE (All Causality) (Ph1a 400 mg N=5): 0% | Pneumonia, ≥Grade 3 TEAE (All Causality) (Ph1a 400 mg N=5): 1 (20.0) % | SAEs (All Causality) (Ph1a 400 mg N=5): 4 (80.0) % | SAEs (Ziftomenib-Related) (Ph1a 400 mg N=5): 1 (20.0) % | TEAEs (All Causality) (Ph1a 400 mg N=5): 5 (100.0) % | Thrombocytopenia, ≥Grade 3 TEAE (All Causality) (Ph1a 400 mg N=5): 1 (20.0) % | ≥Grade 3 TEAEs (All Causality) (Ph1a 400 mg N=5): 4 (80.0) %
